The values that follow come from PubChem BioAssay AID2549 (National Center for Advancing Translational Sciences (NCATS), 2010).

Amino acid sequences for entries named in this document (tags omitted). A change or cut given only in a name is not applied to a line headed by its entry.
UniProt P46063: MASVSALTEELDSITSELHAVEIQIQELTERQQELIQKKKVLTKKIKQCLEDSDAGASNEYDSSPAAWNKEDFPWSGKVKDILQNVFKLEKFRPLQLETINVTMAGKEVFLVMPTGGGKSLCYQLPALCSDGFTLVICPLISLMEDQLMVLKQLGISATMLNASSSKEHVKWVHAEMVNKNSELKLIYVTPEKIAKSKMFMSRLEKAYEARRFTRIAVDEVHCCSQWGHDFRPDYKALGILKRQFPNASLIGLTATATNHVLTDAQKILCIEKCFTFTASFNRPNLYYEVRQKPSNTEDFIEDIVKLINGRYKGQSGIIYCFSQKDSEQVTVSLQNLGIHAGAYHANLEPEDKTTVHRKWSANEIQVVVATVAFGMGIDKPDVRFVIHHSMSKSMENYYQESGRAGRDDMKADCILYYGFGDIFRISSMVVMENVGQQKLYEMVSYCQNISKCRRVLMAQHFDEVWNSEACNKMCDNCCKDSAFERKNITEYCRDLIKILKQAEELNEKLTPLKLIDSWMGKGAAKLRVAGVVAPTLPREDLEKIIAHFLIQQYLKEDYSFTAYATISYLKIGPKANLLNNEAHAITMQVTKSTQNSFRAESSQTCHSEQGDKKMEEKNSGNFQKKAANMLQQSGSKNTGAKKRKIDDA

SMILES strings stand for the structures. This is a selection; strong and weak results do not stand in their true shares. Activity calls are given as the source filed them. Calls come from the whole dose curve; as a rule, active = well fitted inhibition curve with a large enough effect; inconclusive = small, poorly fitted or top-dose-only effect; inactive = flat fitted curve, though single readings scatter. Entries that show only a call come without a potency.

The target of this assay is ATP-dependent DNA helicase Q1 (Homo sapiens) (UniProt P46063). The experiment in a line: qHTS Assay for Inhibitors of RecQ-Like Dna Helicase 1 (RECQ1). Note: nearly all actives have a fitted effect of over 30% in size. The conditions noted are these: RECQ1 DNA unwinding, red fluorescence kinetic read; series mostly up to 57.3 µM. In short, it runs like this: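 50 nM RECQ1T1 preincubated 15 min with compound in Tris pH 8.0 buffer with MgCl2, DTT, Tween-20 and 2.5 ug/ml poly(dI-dC); started with 200 nM TAMRA/BHQ-2 forked duplex and 2 mM ATP. Unwinding read as fluorescence (525/598 nm), two reads 2 h apart.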
Take `CCN(/C(=N/P(=O)(N1CCOCC1)N1CCOCC1)N1CCOCC1)c1ccc(OC)cc1`: the Potency entry was “inactive”.

As for `Nc1ccc([As](=O)(O)c2ccc(N)cc2)cc1`, the Potency result was “inactive”.

For `O=C(Nc1cc([As](=O)(O)O)ccc1O)c1ccccc1`, the Potency entry was “inactive”.

For the compound `O=C(O)CNc1ccc([As](=O)(O)O)cc1`, the Potency entry is “inactive”.

For `O=[N+]([O-])c1cccc(NC2=NCC(CBr)S2)c1` (configuration not stated), the Potency entry was “inactive”.

As to `O=[N+]([O-])c1ncn(CCn2ncnc2[N+](=O)[O-])n1`, the Potency result is “inactive”.

For the compound `CC(C)(C)C(=O)NC(Sc1ccncn1)C(Cl)(Cl)Cl` (configuration not stated), the Potency result is “inactive”.

On to `CCOP(=O)(Nc1ccccc1)OCC`, for which the Potency entry was “inactive”.

For the compound `Cc1cc(SC(NC(=O)c2ccc(F)cc2)C(Cl)(Cl)Cl)ncn1` (configuration not stated), the Potency result was “inactive”.

Turning to `CN(C(=O)Cc1ccc(Cl)c(Cl)c1)[C@H]1CCCC[C@@H]1N1CCCC1`, the Potency result is “inactive”.

In the case of `Cc1ccc(NP(=O)(Oc2ccccc2F)Oc2ccccc2F)nc1`, the Potency entry was “inactive”.

Turning to `O=P(Nc1nc2ccc(Cl)cc2s1)(c1ccccc1)c1ccccc1`, the Potency entry is “inactive”.

Take `O=C(O)c1ccccc1[As](=O)(O)O`: the Potency result is “inactive”.

Take `CC(=O)Nc1ccc([As](=O)(O)O)cc1`: the Potency entry was “inactive”.

In the case of `Nc1cccc2ccc([As](=O)(O)O)cc12`, the Potency result is “inactive”.

Consider `CCN(N=Nc1nonc1N)c1nonc1N`, for which the Potency entry was “inactive”.

On to `Clc1ccc(Cl)c(NC2=NCC(CBr)S2)c1` (configuration not stated), for which the Potency result was “inactive”.

With `CN1CCCC(OC(=O)C(c2ccccc2)c2ccccc2)C1` (configuration not stated), the Potency entry was “inactive”.

With `COc1ccccc1OP(=O)(Nc1ccc(C)cn1)Oc1ccccc1OC`, the Potency result was “inactive”.

As for `Cc1ccc(OP(=O)(Nc2nccs2)Oc2ccc(C)cc2)cc1`, the Potency result is “inactive”.

With `Cc1ccc(N/C(=N/P(=O)(N2CCOCC2)N2CCOCC2)N2CCOCC2)cc1`, the Potency result is “inactive”.

As for `NC(=O)c1cc([N+](=O)[O-])cc([N+](=O)[O-])c1N`, the Potency entry is “inactive”.

Regarding `Oc1ccccc1CNc1ccccn1`, the Potency entry was “inactive”.

As for `Cc1c2non([O-])c-2c(C)[n+](=O)[n+]1[O-]`, the Potency entry was “inactive”.

On to `O=C(NC(Sc1ccncn1)C(Cl)(Cl)Cl)c1ccccc1` (configuration not stated), for which the Potency entry was “inactive”.

As to `CC(C)CC(=O)NC(Sc1ccc(Cl)cc1)C(Cl)(Cl)Cl` (configuration not stated), the Potency result is “inactive”.

For the compound `Nc1cc(N)c2nonc2c1[N+](=O)[O-]`, the Potency result was “inactive”.
